In patent EP1900813A1, “NOVEL PHYSIOLOGICAL SUBSTANCE NESFATIN, SUBSTANCE RELEVANT THERETO, AND USE OF THE SUBSTANCES” (Teijin Pharma Limited, priority 2005, dated 2008):

System: nesfatin
Assay: Binding specificity of anti-nesfatin-1 antibody: Western blotting of rat brain extracts after pre-reaction with peptides
Settings: 5 µg peptide per 1 µg anti-nesfatin-1 antibody, room temperature, 1 hour
Description: Western blotting analysis was carried out by the method described in Working Example 3 with the primary antibody being changed from anti-NAP polyclonal antibody to anti-nesfatin-1 antibody. Before reacting anti-nesfatin-1 antibody to the membrane in Western blotting as an experiment for investigating the binding specificity of anti-nesfatin-1 antibody, 5 µg of each peptide of NAP1-Ab (Working Example 10), and leptin (Rat leptin: R & D Systems, 598-LP-01M), αMSH (Melanocyte Stimulating Hormone; Peptide Institute, Inc., 4057-v), CART (Rat Cocaine- and Amphetamine-Regulated Transcript 55-102; Peptide Institute, Inc., 4351-s), NPY (Human, Rat Neuropeptide Y; Peptide Institute, Inc., 4158-v), MCH (Human Melanin-Concentrating Hormone; Peptide Institute, Inc., 4369-v) and Orexin-A (Human, Rat, Mouse, Bovine Orexin-A; Peptide Institute, Inc., 4346-s) per 1 µg of anti-nesfatin-1 antibody was added, and reacted at room temperature for 1 hour, and then Western blotting was carried out in the method described above to examine whether or not the bands disappear.

Substance: CART: Rat Cocaine- and Amphetamine-Regulated Transcript 55-102; Peptide Institute, Inc., 4351-s (IPIYEKKYGQVPMCDAGEQCAVRKGARIGKLCDCPRGTSCNSFLLKCL)
- 47.5 kd band of nesfatin in Western blotting after pre-reaction of anti-nesfatin-1 antibody with the peptide: did not disappear
